{
  "source": "patent US6984772",
  "key": {"Mouse fibrinogen": {"biological_target": "Mouse fibrinogen (UniProt E9PV24)"}, "[1]": {"biological_target": "Plasma derived human fibrinogen (reference protein) (UniProt P02671)"}, "[2]": {"biological_target": "Recombinant human fibrinogen from the milk of transgenic mice (UniProt P02671)"}},
  "data": [
    {"substance": "Human thrombin", "values": [
      {"measurement": "% FPA yield, T = 24 hours (mouse plasma)", "setting": "Mouse fibrinogen", "value": 5, "unit": "%"},
      {"measurement": "% FPA yield, T = 24 hours (fibrinopeptide A released, EIA)", "setting": "[1]", "value": 100, "unit": "%"},
      {"measurement": "% FPA yield, T = 24 hours (hFIB spiked into non-transgenic whey, pellet-2)", "setting": "[1]", "value": 75, "unit": "%"},
      {"measurement": "Fibrinogen µg/ml (ELISA) left in supernatant at T = 24 hours of thrombin treatment (100 at T = 0)", "setting": "[1]", "value": 0.1, "unit": "µg/mL"},
      {"measurement": "Fibrinogen µg/ml (ELISA) left in supernatant at T = 24 hours of thrombin treatment (spiked NTG whey pellet-2, 50 at T = 0)", "setting": "[1]", "value": 0.1, "unit": "µg/mL"},
      {"measurement": "% FPA yield, T = 24 hours (transgenic whey pellet-2)", "setting": "[2]", "value": 60, "unit": "%"}
    ]}
  ]
}
